Test results reported in patent US8906865B2, “Treatment of inflammation and/or endotoxic shock” (ISIS Innovation Limited, priority 2007, dated 2014).

System: Murine peritoneal macrophages (PMθ)
Assay: RANTES and TNFα transcript expression (qRT-PCR) in LPS/IFNγ-treated murine macrophages
Assay type: cell-based, mouse
Conditions: 1 nM pre-treatment 1 h then LPS/IFNγ 15 h; n=1
Protocol: Murine peritoneal macrophages (PMθ) were cultured under various conditions: Untreated, LPS (100 ng/ml) and IFNγ (20 ng/ml) for 15 h, modified Chemerin13-human (1 nM) pre-treatment for 1 h then LPS/IFNγ for 15 h. The bar graphs show the mean expression of cytokine transcript determined by qRT-PCR and normalised to housekeeper, hypoxanthine phosphoribosyltransferase, HPRT. Experiments were performed with triplicate determinations for each treatment, n=1 independent experiments. p<0.01 **; p<0.05 * relative to LPS/IFNγ-treated samples unless otherwise stated. The sequence of the modified C13h peptide is NH2-FHSFYFPGQFAFS-COOH (Seq ID No: 43)—in this sequence the N terminal P in C13h has been replaced with the amino acid F, and the peptide is therefore referred to as modified C13h.
Total RNA was extracted using Qiagen RNeasy kits, reverse transcribed and subjected to qRT-PCR using the Sybr-Green method. Data was analysed using the 2-ΔΔCT method (Livak, K. J. & Schmittgen T. D. (2001), Methods 25:402-408).

NH2-FHSFYFPGQFAFS-COOH (Modified C13h) [N terminal P in C13h replaced with F]
RANTES transcript expression (FIG. 10): significantly reduced expression | TNFα transcript expression (FIG. 10): significantly reduced expression
